# Measured values published in publication PMC6116245 (Viruses, 2018).
# Assay: Cytotoxicity study, CellTitre-Blue viability assay
# Conditions: cat
structure (smiles),measurement,value
"O=c1c(O)c(-c2ccc(O)c(O)c2)oc2cc(O)c(O)c(O)c12 [Quercetagetin, quercetagetin]",CC50 at 48 h,> 100 µM
